Experimental findings from ChEMBL document CHEMBL1152936, “Human sialidase inhibitors: design, synthesis, and biological evaluation of 4-acetamido-5-acylamido-2-fluoro benzoic acids” (Bioorg Med Chem, 2009) are described below.

For this test, the target named is T1, Sialidase-4 (Homo sapiens, UniProt Q8WWR8).
T1 sequence (Q8WWR8 whole entry): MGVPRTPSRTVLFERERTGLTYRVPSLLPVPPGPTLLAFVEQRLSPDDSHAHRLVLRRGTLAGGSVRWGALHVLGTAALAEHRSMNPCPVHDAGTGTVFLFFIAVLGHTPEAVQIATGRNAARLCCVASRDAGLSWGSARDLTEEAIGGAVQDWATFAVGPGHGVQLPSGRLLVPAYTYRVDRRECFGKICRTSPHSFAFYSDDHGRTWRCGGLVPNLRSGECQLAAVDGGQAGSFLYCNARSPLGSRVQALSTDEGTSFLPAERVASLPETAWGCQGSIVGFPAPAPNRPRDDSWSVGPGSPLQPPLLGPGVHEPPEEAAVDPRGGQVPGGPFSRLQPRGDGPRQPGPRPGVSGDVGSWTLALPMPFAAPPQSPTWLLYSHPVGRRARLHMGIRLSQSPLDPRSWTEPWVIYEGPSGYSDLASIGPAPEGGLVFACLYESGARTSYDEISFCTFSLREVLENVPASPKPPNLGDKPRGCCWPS
The test can be described thus: Inhibition of human NEU4 transiently transfected in HEK293T cells by fluorimetric analysis. Format: cell-based, HEK-293T.

`CC(=O)N[C@H]1[C@H]([C@H](O)[C@H](O)CO)OC(C(=O)O)=C[C@@H]1O` [NEU5AC2EN]: the IC50 was determined as 70 µM.
